In patent publication US10048272B2, “High-affinity small molecule formylpeptide receptor ligands from screening of combinatorial mixture-based libraries” (STC.UNM, priority 2013, dated 2018):
pKi: −log10 of the molar value.

Protein sequences, listed by entry. Tags and fused reporters are not part of them.
UniProt P21462, whole entry: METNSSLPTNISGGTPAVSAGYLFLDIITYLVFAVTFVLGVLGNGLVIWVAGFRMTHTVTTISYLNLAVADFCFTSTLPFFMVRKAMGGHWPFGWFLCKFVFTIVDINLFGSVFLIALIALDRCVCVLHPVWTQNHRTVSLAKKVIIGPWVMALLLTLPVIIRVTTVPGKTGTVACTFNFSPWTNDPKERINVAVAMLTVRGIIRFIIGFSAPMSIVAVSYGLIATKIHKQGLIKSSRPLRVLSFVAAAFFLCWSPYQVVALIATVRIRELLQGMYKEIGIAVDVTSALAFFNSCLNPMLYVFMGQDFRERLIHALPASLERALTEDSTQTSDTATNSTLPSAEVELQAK
UniProt P25090, whole entry: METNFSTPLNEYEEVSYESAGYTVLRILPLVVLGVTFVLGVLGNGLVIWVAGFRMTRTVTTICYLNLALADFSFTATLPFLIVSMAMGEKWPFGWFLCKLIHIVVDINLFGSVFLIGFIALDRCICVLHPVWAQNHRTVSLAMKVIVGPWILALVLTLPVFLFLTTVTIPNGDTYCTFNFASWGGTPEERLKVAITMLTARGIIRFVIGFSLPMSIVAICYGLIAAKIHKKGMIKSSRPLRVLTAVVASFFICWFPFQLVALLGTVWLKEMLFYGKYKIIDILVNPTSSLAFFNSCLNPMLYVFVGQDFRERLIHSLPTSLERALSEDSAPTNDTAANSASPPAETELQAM

Key:
[1] = target: FPR1 (Homo sapiens, UniProt P21462); experiment: Duplex flow cytometry receptor binding assay (WPep-FITC fluorescent ligand competition), U937/FPR1 cells; conditions: for pKi: read-out: Ki, binding to FPR1 (ligand competition), WPep-FITC displacement, U937/FPR1 cells
[2] = target: T1, FPR2 (Homo sapiens, UniProt P25090); experiment: Duplex flow cytometry receptor binding assay (WPep-FITC fluorescent ligand competition), RBL/FPR2 cells; conditions: for pKi: read-out: Ki, binding to FPR2 (ligand competition), WPep-FITC displacement, RBL/FPR2 cells; for FPR2 selectivity: FPR2 over FPR1
[3] = target: T1, FPR2; experiment: Intracellular calcium mobilization assay, FPR2 cells (agonist and antagonist determinations)
[4] = second compound of the printed pair relative to the first (1754-43 to 1754-49)

SMILES	pKi [1]	pKi [2]	Functional activity in FPR2-mediated intracellular Ca2+ response (agonist/antagonist) ([3]; result in words)	Receptor selectivity, FPR1 versus FPR2, in ligand competition binding (in words) [1]	Decrease of activity for FPR1 (potency difference, pKi) [1, 4] [log units]	FPR2 selectivity ([2]; as printed in b133 ('nM Ki')) [nM]	FPR2 selectivity ([2]; no unit)	Increase of activity for FPR2 (potency difference, pKi) [2, 4]	Response efficacy (fitted Top), Ca2+ response in FPR2 cells ([3]; maximum response relative to control peptide Wpep (WKYMVm)) [%]
CCC[C@H]1CNC(=O)C(=O)N1C[C@@H]1CCCN1C[C@@H](CCC)N1C[C@@H](Cc2ccc(O)cc2)N(CC2CCC(C)CC2)C(=O)C1=O (stereo partly drawn)	< 5.00	–	–	–	–	–	–	–	–
CCC[C@H](CN1CCC[C@H]1CN1C(=O)C(=O)NC[C@@H]1C(C)C)N1C[C@@H](Cc2ccc(O)cc2)N(CCc2ccc(-c3ccccc3)cc2)C(=O)C1=O	> 7.00	> 7.00	antagonist	–	–	–	–	–	–
CCC[C@H]1CNC(=O)C(=O)N1C[C@@H]1CCCN1C[C@@H](CCC)N1C[C@@H](Cc2ccc(O)cc2)N(CC2CCCCC2)C(=O)C1=O	7.05	< 5.00	–	selective for FPR1	–	–	–	–	–
CCC[C@H]1CNC(=O)C(=O)N1C[C@@H]1CCCN1C[C@@H](Cc1ccc2ccccc2c1)N1C[C@@H](Cc2ccc(O)cc2)N(CC2CCCCC2)C(=O)C1=O	5.63	7.48	–	selective for FPR2	1.41	70	70	more than 2.48 log units	67
